Data: publication PMC11201660 (Biomolecules, 2024)
Read-outs that look alike come from different tables or passages of the source.

Sequences of proteins named here, by UniProt entry; tags and fusion partners are left off. Residues count along the entry.
UniProt P06276, 29-602 limits assumed: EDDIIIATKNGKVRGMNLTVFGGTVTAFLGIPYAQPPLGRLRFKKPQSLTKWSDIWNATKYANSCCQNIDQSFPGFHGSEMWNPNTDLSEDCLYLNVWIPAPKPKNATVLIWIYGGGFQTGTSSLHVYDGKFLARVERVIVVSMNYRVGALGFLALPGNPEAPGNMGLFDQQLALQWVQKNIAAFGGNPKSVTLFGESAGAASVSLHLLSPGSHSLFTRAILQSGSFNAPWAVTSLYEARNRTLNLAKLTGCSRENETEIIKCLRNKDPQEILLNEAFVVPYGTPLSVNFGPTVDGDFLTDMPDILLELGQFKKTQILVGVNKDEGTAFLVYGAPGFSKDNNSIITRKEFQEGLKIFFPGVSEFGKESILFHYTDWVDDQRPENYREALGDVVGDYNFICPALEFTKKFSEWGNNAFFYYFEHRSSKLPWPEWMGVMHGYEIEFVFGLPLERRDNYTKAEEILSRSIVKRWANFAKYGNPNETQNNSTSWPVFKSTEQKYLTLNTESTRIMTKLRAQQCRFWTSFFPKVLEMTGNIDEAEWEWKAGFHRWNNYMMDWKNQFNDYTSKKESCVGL

Assays:
[1] = molecular target: T1, cyclosarin-inhibited BChE (Homo sapiens, UniProt P06276); assay: Oxime-assisted reactivation of cyclosarin-inhibited BChE
[2] = molecular target: T1, cyclosarin-inhibited BChE; conditions: cited from earlier work

O/N=C/c1occc1/C=C\c1ccc(Cl)cc1 [cis,syn-16, (E)-3-((Z)-4-chlorostyryl)furan-2-carbaldehyde oxime]
overall reactivation rate constant kr ([1]; 0.01–0.2 mM oxime, 25 °C): 7.07 ± 0.65 M⁻¹ s⁻¹
time t in which maximal reactivation was achieved ([1]; detailed kinetics, 25 °C): 105 min

HI-6
observed first-order reactivation rate kobs (in words) ([1]; oxime 0.1 mM screening): highest observed first-order reactivation rate
overall reactivation rate constant kr ([2]; 0.1–1 mM HI-6): 13 ± 0.5 M⁻¹ s⁻¹
time t in which maximal reactivation was achieved [2]: 30 min
